As a reminder, the inhibition is the percentage by which the read-out fell short of the control.

The chains behind the UniProt entries cited, without tags or fusion partners. Where a name states a change or a piece, a line headed by the entry shows the natural chain unless it says otherwise.
UniProt P51451: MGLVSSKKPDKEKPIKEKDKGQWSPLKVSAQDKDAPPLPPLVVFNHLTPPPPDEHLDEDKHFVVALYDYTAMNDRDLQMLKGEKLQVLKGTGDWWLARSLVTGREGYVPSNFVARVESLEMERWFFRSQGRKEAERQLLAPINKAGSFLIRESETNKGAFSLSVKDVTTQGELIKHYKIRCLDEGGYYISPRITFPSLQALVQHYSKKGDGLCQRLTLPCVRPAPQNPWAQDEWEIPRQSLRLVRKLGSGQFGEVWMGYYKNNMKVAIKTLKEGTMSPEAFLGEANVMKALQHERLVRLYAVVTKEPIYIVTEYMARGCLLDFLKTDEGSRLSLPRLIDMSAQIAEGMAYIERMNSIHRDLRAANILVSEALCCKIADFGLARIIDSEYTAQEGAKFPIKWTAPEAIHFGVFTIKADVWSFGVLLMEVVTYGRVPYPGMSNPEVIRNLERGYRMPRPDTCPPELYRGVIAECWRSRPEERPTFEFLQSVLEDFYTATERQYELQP
UniProt Q00526: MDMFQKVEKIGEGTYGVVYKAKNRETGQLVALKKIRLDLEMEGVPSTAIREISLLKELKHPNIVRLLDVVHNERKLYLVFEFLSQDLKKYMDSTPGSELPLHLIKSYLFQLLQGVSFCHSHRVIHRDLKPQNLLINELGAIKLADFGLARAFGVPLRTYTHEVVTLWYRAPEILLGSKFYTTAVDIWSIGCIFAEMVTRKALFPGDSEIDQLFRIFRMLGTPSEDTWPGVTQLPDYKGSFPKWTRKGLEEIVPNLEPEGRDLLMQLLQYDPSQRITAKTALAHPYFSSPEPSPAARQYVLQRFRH
UniProt Q00534, whole entry: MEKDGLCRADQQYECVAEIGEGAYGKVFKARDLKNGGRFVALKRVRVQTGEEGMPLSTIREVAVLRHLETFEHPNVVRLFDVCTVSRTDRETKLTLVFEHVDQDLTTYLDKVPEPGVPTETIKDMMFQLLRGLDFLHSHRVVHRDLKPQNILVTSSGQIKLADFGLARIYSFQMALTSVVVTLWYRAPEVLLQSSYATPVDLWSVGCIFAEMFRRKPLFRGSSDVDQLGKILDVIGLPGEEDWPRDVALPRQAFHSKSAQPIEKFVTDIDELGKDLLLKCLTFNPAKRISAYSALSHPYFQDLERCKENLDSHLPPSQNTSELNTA
UniProt Q9UIK4: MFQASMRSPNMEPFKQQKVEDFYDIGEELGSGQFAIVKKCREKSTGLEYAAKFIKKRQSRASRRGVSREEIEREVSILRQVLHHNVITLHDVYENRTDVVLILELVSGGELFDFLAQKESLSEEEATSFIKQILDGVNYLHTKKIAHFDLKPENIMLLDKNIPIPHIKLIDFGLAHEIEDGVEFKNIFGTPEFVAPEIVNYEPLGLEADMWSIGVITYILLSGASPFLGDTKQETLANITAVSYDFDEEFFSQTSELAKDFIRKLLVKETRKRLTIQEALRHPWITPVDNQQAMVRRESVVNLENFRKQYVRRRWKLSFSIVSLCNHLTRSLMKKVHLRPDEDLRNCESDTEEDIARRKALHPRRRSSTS
UniProt Q08345: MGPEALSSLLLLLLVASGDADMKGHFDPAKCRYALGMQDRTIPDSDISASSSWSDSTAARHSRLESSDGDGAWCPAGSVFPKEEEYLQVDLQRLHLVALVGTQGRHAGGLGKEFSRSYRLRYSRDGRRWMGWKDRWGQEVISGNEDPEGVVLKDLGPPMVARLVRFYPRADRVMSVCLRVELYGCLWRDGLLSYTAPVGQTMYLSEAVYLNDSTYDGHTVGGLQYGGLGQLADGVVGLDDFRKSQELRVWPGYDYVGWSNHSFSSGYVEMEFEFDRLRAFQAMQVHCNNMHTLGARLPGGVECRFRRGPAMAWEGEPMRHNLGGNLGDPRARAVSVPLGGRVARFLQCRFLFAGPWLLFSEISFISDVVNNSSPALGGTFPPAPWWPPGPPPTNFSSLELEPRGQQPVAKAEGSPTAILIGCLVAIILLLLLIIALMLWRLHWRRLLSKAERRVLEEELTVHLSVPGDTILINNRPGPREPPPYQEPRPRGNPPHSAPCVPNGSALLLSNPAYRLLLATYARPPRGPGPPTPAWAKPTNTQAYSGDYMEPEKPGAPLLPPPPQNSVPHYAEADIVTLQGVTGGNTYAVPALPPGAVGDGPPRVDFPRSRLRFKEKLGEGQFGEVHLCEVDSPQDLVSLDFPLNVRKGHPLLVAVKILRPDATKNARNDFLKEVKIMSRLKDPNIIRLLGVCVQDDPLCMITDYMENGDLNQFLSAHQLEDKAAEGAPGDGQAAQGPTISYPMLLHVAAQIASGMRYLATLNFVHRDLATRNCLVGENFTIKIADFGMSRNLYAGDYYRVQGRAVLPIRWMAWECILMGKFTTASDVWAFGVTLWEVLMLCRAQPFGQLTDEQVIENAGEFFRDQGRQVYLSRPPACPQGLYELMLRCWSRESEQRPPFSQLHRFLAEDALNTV
UniProt P45983: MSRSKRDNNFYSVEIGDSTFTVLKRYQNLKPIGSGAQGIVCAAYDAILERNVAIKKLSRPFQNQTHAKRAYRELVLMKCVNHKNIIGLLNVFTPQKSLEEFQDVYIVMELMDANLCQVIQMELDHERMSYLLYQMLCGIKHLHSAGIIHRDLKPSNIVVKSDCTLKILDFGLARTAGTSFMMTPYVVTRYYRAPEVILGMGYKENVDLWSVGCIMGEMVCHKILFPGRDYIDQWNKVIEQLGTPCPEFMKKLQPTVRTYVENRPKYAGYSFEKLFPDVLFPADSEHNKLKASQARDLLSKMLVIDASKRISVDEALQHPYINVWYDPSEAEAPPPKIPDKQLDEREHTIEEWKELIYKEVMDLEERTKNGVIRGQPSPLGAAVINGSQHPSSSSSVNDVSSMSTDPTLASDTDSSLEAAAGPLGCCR
UniProt P29376: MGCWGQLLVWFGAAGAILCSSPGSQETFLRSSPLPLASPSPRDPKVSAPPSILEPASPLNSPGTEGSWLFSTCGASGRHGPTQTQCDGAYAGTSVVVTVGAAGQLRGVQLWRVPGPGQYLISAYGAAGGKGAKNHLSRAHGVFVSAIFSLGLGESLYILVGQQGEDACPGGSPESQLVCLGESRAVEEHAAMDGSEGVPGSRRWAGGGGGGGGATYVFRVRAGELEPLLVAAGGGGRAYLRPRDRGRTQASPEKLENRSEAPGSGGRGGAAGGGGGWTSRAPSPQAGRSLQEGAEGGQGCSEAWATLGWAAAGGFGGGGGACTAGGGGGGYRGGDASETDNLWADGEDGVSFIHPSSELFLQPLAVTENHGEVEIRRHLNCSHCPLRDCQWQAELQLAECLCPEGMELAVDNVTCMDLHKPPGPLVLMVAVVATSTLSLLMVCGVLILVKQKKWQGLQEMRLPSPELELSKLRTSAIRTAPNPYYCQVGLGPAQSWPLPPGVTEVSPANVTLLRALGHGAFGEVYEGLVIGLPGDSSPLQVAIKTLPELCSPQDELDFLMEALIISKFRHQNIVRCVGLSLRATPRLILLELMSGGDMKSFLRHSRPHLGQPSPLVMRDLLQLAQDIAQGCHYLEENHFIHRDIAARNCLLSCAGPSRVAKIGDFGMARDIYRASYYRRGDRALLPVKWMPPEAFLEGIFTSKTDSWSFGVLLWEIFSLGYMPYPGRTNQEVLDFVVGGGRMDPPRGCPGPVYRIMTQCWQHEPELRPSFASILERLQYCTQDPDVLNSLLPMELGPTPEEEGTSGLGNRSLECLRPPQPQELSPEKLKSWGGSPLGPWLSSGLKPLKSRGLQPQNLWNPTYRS
UniProt Q9BUB5: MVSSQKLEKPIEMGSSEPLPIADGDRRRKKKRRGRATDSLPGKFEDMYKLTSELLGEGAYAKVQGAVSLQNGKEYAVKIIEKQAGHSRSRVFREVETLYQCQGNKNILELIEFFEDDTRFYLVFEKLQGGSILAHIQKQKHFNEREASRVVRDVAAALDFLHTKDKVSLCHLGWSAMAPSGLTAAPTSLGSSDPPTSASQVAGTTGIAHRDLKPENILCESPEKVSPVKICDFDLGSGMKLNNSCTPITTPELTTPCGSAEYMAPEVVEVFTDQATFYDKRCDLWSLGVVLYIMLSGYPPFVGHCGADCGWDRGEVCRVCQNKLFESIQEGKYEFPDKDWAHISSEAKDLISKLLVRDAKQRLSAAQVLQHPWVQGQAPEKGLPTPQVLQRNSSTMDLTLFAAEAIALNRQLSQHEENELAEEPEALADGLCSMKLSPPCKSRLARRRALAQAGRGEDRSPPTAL
UniProt Q9HBH9: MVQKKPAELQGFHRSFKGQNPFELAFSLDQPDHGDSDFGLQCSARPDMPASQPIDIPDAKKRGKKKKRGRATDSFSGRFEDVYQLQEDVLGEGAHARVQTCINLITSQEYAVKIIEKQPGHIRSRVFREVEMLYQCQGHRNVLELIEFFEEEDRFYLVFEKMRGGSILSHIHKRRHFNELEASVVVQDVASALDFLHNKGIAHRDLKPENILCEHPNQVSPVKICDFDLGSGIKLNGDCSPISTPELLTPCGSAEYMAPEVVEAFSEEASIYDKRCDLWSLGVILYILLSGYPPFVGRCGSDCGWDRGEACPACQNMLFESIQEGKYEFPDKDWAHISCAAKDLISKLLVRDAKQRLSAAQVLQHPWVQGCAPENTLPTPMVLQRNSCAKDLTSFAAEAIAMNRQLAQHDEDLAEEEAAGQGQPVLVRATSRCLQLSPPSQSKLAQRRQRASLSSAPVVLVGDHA
UniProt P37173, whole entry: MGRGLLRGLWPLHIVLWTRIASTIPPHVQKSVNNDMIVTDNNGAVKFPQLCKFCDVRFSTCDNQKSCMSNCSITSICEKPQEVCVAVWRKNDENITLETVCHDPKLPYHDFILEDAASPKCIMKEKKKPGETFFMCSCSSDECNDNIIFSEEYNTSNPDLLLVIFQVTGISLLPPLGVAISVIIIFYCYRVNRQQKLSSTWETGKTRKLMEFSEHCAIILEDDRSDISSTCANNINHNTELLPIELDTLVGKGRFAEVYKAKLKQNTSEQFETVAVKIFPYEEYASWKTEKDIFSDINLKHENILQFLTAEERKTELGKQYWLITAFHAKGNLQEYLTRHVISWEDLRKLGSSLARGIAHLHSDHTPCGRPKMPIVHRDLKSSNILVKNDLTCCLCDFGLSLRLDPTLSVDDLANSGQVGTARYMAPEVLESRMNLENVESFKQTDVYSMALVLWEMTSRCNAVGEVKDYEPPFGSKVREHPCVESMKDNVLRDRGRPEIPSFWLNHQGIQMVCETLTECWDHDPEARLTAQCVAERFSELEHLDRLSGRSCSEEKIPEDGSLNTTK
UniProt Q86Y07: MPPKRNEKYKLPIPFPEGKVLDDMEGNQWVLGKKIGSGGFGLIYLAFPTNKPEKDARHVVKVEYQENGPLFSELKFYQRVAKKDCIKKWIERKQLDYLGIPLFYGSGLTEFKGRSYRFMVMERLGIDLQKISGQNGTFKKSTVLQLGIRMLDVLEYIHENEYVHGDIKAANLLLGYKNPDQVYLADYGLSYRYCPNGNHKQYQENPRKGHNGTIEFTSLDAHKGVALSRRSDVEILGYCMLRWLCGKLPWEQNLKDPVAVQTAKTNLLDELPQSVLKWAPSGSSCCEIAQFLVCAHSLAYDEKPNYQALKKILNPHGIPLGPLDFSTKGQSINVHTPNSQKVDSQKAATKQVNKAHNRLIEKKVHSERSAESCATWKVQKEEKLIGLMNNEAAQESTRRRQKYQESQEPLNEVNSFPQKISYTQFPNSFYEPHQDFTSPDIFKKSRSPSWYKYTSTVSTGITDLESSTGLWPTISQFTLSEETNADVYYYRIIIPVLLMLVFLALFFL
UniProt P31749: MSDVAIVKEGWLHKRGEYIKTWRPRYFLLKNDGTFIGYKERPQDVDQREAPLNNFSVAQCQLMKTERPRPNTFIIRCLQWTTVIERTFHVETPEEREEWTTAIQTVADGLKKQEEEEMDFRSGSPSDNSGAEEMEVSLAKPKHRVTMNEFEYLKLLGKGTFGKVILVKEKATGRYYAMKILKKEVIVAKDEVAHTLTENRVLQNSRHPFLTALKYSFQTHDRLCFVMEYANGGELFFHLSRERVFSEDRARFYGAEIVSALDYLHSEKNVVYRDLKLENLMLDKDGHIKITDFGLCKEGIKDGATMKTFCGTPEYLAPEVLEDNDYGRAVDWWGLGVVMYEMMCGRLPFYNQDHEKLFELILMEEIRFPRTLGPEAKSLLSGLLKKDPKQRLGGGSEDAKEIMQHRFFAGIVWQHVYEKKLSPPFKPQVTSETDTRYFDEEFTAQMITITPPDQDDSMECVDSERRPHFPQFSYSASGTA

We go through 1 compound from ChEMBL document CHEMBL5500413, “Discovery of Novel Receptor Tyrosine Kinase-like Orphan Receptor 1 (ROR1) Inhibitors for Cancer Treatment” (J Med Chem, 2024).

Activity calls are given as the source filed them. The rule behind the calls is not given here.

For test [1], the target named is T1, Aurora kinase A (Homo sapiens) (UniProt O14965).
T1 sequence (whole entry): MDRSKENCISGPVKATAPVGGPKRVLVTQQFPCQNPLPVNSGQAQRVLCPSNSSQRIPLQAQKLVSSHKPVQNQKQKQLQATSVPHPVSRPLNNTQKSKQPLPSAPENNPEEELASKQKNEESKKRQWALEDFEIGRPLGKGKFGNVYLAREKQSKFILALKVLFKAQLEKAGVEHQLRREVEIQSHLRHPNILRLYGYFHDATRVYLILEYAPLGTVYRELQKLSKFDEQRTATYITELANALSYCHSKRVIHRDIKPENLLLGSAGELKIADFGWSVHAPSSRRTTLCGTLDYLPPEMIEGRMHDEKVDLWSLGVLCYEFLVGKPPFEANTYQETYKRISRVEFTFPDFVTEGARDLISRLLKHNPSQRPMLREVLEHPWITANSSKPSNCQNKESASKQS
Put plainly: Inhibition of human AurA at 1 uM by Eurofins Discovery screening relative to control.

The target in test [2] is Tyrosine-protein kinase Blk (Homo sapiens) (UniProt P51451). The test can be described thus: Inhibition of human BLK at 1 uM by Eurofins Discovery screening relative to control.
Test [3] concerns the target Cyclin-dependent kinase 3 (Homo sapiens) (UniProt Q00526). The test can be described thus: Inhibition of human CDK3 at 1 uM by Eurofins Discovery screening relative to control.
The target in test [4] is Cyclin-dependent kinase 6 (Homo sapiens) (UniProt Q00534). Put plainly: Inhibition of human CDK6 at 1 uM by Eurofins Discovery screening relative to control.
Test [5] deals with Death-associated protein kinase 2 (Homo sapiens) (UniProt Q9UIK4). Put plainly: Inhibition of human DAPK2 at 1 uM by Eurofins Discovery screening relative to control.
For test [6], the target named is RAF proto-oncogene serine/threonine-protein kinase (Homo sapiens) (UniProt P04049). Put plainly: Inhibition of human RAF1 at 1 uM by Eurofins Discovery screening relative to control.
The target of test [7] is Epithelial discoidin domain-containing receptor 1 (Homo sapiens) (UniProt Q08345). The test can be described thus: Inhibition of human DDR1 at 1 uM by Eurofins Discovery screening relative to control.
In test [8] the target is Mitogen-activated protein kinase 8 (Homo sapiens) (UniProt P45983). The test can be described thus: Inhibition of human JNK1 at 1 uM by Eurofins Discovery screening relative to control.
Test [9] deals with Leukocyte tyrosine kinase receptor (Homo sapiens) (UniProt P29376). The test can be described thus: Inhibition of human LTK at 1 uM by Eurofins Discovery screening relative to control.
The target in test [10] is Mitogen-activated protein kinase kinase kinase 11 (Homo sapiens) (UniProt Q16584). The test can be described thus: Inhibition of human MLK3 at 1 uM by Eurofins Discovery screening relative to control.
The target of test [11] is MAP kinase-interacting serine/threonine-protein kinase 1 (Homo sapiens) (UniProt Q9BUB5). The test can be described thus: Inhibition of human MNK1 at 1 uM by Eurofins Discovery screening relative to control.
The target of test [12] is MAP kinase-interacting serine/threonine-protein kinase 2 (Homo sapiens) (UniProt Q9HBH9). Put plainly: Inhibition of human MNK2 at 1 uM by Eurofins Discovery screening relative to control.
The target in test [13] is [Pyruvate dehydrogenase (acetyl-transferring)] kinase isozyme 2, mitochondrial (Homo sapiens) (UniProt Q15119). Put plainly: Inhibition of human PDK2 at 1 uM by Eurofins Discovery screening relative to control.
The target in test [14] is Rho-associated protein kinase 2 (Homo sapiens) (UniProt O75116). The test can be described thus: Inhibition of human ROCK2 at 1 uM by Eurofins Discovery screening relative to control.
For test [15], the target named is Tyrosine-protein kinase SYK (Homo sapiens) (UniProt P43405). Put plainly: Inhibition of human SYK at 1 uM by Eurofins Discovery screening relative to control.
Test [16] deals with TGF-beta receptor type-2 (Homo sapiens) (UniProt P37173). Put plainly: Inhibition of human TGFbetaR2 at 1 uM by Eurofins Discovery screening relative to control.
The target in test [17] is Serine/threonine-protein kinase VRK2 (Homo sapiens) (UniProt Q86Y07). Put plainly: Inhibition of human VRK2 at 1 uM by Eurofins Discovery screening relative to control.
In test [18] the target is RAC-alpha serine/threonine-protein kinase (Homo sapiens) (UniProt P31749). Put plainly: Inhibition of AKT activation in human NCI-H1975 cells assessed as reduction in AKT phosphorylation at 10 uM measured after 24 hrs by Western blot analysis. Format: cell-based. (In general: In western blotting, separated proteins are transferred to a membrane and probed.)
Test [19] has the same target. Put plainly: Inhibition of AKT activation in human A549 cells assessed as reduction in AKT phosphorylation at 10 uM measured after 24 hrs by Western blot analysis. Format: cell-based.
Test [20] shares this target. Put plainly: Inhibition of AKT activation in human MDA-MB-231 cells assessed as reduction in AKT phosphorylation at 10 uM measured after 24 hrs by Western blot analysis. Format: cell-based.

Turning to `COCOc1ccc(-c2cn(C)c3cc(NC(=O)c4ccc(C)c(C#Cc5ccnc6[nH]ncc56)c4)ccc23)cc1`, the inhibition came out at 17% in test [1]; 15% in [2]; 12% in test [3]; 15% in test [4]; 15% in test [5]; 24% in test [6]. The inhibition in test [7] stood at 25%; in test [8] it was 14%; in [9] it was 15%; in test [10], 19%; in test [11], 20%; in [12], 23%. Besides, the inhibition in test [13] amounted to 12%; in test [14], 26%; in test [15] it was 16%; in test [16], 17%; in [17], 15%. Besides, the inhibition result in [18], in [19] and in test [20] was “Active” in each case.
